What was measured:
[1] = biological target: T1, Dopamine Transporter (DAT) (Homo sapiens, UniProt Q01959); details: read-out: Target Binding Affinity Determined by Competition Radioligand Binding–KI, DAT
T1 construct: HA (N); host or cells: HEK293 (ATCC CRL-1573), electroporated, G418-selected population

Protein sequences, listed by entry. Tags and fused reporters are not part of them.
UniProt Q01959, whole entry: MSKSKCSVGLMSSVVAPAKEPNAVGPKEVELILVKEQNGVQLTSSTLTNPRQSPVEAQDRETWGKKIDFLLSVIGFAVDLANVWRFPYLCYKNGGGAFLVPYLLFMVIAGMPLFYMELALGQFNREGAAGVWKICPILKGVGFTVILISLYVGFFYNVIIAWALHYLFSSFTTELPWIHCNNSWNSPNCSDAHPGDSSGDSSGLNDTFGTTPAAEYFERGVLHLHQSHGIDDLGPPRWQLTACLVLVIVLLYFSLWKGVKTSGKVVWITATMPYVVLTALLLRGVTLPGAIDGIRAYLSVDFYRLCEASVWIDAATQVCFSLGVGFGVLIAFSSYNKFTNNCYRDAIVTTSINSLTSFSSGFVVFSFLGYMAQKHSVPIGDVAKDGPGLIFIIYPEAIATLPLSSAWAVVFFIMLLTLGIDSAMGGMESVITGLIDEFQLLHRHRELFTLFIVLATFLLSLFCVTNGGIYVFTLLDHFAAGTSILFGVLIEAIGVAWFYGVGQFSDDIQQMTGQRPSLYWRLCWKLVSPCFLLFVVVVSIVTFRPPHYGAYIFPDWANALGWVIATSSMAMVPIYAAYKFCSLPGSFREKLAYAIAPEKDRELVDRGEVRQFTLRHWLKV
UniProt P23975, whole entry: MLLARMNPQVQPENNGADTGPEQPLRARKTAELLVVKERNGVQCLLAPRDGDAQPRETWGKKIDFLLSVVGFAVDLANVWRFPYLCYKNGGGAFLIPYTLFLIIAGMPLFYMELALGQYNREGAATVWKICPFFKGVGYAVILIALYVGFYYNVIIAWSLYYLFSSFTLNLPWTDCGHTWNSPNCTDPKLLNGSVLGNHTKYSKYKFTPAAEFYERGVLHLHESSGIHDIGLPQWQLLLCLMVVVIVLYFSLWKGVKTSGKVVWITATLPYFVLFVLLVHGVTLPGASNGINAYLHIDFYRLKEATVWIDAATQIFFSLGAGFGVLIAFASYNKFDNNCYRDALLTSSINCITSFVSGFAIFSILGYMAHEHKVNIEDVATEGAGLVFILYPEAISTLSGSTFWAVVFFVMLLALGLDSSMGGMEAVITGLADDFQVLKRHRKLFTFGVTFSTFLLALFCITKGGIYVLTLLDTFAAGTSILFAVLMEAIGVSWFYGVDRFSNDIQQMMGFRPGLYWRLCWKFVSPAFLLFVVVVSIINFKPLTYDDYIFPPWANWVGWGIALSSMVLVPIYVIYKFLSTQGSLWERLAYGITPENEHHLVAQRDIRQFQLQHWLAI
UniProt P21554, whole entry: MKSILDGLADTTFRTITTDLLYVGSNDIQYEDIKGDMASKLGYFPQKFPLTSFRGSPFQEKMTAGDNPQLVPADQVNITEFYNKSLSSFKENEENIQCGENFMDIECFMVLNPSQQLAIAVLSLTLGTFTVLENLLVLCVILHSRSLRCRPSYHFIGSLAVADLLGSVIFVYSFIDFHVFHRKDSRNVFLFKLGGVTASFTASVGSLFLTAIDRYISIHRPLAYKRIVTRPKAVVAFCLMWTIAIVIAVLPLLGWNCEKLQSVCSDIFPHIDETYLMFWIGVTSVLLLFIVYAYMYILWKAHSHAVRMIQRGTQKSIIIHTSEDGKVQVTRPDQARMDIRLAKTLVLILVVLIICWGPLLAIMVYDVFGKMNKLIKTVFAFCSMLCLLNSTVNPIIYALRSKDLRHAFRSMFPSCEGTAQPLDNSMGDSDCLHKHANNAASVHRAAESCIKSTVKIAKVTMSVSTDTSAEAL

[2] = biological target: T2, Norepinephrine Transporter (NET) (Homo sapiens, UniProt P23975); assay type: cell-based; details: read-out: NET IC50 (transporter assay)
T2 construct: HA (N); host or cells: HEK293 (ATCC CRL-1573), electroporated, G418-selected population

[3] = biological target: T1, Dopamine Transporter (DAT); assay type: cell-based; details: read-out: DAT IC50 (transporter assay)
[4] = biological target: T3, Cannabinoid Receptor Type 1 (CB1) (Homo sapiens, UniProt P21554); details: read-out: CB1 EC50 (35S-GTPγS)
[5] = biological target: T3, Cannabinoid Receptor Type 1 (CB1); parameters: membranes used; details: read-out: Target Binding Affinity Determined by Competition Radioligand Binding–KI, CB1

Buprenorphine
> 2000 nM: Ki [1] | IC50 [2] | IC50 [3] | EC50 [4] | Ki [5]
